From patent US10781456B2, “Carbon-neutral and carbon-positive photorespiration bypass routes supporting higher photosynthetic rate and yield” (Max-Planck-Gesellschaft zur Förderung der Wissenschaften …, priority 2015, dated 2020)

Target: T1, propionyl-CoA transferase from Clostridium propionicum (PCTCp), wild type, SEQ ID NO: 14 (Anaerotignum propionicum, UniProt Q9L3F7)
T1 sequence (Q9L3F7 with tags, fused parts or gaps): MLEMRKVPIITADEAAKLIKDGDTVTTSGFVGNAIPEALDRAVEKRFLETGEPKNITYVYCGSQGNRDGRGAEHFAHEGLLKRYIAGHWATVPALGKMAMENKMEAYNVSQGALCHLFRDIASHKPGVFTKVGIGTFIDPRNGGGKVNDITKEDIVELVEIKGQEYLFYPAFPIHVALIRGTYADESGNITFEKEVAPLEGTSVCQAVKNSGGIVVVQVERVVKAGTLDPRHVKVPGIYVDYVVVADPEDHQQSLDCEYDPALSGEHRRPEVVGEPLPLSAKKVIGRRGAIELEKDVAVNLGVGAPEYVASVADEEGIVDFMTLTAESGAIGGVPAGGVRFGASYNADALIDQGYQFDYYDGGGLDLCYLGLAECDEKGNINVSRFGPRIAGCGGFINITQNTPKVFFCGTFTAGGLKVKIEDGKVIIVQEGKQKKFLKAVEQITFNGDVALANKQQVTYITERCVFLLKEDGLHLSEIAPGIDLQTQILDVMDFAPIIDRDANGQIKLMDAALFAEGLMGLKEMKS
Settings: 37° C., pH 7.5, 2 mM acetyl-CoA; n=1 (preliminary result)

Molecule `O=C(O)CO` [glycolate] has a vmax of 31.6±2.7 mU mg^−1.
